Assay [1] deals with CCRF-CEM leukemia cells. Briefly: CCRF-CEM ASNase cell proliferation assay. Conditions: read-out: CCRF-CEM ASNase Cell Proliferation; 1 mU/mL ASNase, 72 h. As for the experimental part:
CCRF-CEM leukemia cells (catalog #CCL-116) were obtained from the American Type Culture Collect (ATTC, Manassas, VA). Cells were grown in RPMI-1640 medium supplemented with 10% heat-inactivated fetal bovine serum (Invitrogen, Carlsbad, CA) and 1% Penicillin/Streptomycin/L-Glutamine at 37° C., 5% CO2, and 95% humidity. Cells were expanded until reaching one million cells per mL at which time they are subcultured or harvested for assay use. Ten thousand cells per well in 200 μL RPMI-1640 supplemented with 10% heat-inactivated fetal bovine serum and 1% Penicillin/Streptomycin were dispensed into a 96-well black clear bottom plate. A serial dilution of test compound and 1 mU/mL ASNase was added in triplicate and plates were incubated for 72 h at 37° C., 5% CO2, and 95% humidity. At the end of the incubation, 40 μL of a […] solution of resazurin (Sigma, St. Louis, MO) in PBS was added to each well of the plate and plates were incubated for an additional 6 h at 37° C., 5% CO2, and 95% humidity. Plates were read on a Synergy2 or equivalent reader (Biotek, Winooski VT) using an excitation of 540 nm and an emission of 600 nm. Data was analyzed using GraphPad Prism software (GraphPad, San Diego, CA) to calculate IC50 values.

By UniProt entry, the sequences of proteins in these tests, tags left out. Chains listed by the source or under a name are the forms on record and can include a tag or linker. Residues count along the entry.
UniProt Q9NZJ5, 564-1116 with tags or gaps limits assumed: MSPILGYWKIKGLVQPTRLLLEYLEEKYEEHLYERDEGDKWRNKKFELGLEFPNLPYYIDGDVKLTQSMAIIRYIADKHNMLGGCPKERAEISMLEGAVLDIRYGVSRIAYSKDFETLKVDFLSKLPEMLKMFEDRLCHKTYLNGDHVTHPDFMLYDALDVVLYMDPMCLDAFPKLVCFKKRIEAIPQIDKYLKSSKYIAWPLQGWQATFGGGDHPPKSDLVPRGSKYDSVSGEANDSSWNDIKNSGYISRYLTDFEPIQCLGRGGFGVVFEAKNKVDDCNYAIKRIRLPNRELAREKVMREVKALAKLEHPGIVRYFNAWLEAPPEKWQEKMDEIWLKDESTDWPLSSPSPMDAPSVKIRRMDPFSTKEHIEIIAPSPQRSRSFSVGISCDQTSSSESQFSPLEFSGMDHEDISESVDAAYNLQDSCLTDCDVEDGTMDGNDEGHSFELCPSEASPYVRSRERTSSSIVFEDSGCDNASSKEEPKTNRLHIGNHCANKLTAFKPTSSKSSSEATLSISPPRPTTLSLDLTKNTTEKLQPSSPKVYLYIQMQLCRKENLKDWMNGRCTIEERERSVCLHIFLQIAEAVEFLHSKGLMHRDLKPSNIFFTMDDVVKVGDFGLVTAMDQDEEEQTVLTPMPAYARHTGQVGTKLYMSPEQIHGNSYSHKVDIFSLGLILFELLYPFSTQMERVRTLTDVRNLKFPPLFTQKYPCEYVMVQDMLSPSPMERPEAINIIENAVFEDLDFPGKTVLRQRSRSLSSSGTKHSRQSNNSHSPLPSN
UniProt Q9P2K8, whole entry: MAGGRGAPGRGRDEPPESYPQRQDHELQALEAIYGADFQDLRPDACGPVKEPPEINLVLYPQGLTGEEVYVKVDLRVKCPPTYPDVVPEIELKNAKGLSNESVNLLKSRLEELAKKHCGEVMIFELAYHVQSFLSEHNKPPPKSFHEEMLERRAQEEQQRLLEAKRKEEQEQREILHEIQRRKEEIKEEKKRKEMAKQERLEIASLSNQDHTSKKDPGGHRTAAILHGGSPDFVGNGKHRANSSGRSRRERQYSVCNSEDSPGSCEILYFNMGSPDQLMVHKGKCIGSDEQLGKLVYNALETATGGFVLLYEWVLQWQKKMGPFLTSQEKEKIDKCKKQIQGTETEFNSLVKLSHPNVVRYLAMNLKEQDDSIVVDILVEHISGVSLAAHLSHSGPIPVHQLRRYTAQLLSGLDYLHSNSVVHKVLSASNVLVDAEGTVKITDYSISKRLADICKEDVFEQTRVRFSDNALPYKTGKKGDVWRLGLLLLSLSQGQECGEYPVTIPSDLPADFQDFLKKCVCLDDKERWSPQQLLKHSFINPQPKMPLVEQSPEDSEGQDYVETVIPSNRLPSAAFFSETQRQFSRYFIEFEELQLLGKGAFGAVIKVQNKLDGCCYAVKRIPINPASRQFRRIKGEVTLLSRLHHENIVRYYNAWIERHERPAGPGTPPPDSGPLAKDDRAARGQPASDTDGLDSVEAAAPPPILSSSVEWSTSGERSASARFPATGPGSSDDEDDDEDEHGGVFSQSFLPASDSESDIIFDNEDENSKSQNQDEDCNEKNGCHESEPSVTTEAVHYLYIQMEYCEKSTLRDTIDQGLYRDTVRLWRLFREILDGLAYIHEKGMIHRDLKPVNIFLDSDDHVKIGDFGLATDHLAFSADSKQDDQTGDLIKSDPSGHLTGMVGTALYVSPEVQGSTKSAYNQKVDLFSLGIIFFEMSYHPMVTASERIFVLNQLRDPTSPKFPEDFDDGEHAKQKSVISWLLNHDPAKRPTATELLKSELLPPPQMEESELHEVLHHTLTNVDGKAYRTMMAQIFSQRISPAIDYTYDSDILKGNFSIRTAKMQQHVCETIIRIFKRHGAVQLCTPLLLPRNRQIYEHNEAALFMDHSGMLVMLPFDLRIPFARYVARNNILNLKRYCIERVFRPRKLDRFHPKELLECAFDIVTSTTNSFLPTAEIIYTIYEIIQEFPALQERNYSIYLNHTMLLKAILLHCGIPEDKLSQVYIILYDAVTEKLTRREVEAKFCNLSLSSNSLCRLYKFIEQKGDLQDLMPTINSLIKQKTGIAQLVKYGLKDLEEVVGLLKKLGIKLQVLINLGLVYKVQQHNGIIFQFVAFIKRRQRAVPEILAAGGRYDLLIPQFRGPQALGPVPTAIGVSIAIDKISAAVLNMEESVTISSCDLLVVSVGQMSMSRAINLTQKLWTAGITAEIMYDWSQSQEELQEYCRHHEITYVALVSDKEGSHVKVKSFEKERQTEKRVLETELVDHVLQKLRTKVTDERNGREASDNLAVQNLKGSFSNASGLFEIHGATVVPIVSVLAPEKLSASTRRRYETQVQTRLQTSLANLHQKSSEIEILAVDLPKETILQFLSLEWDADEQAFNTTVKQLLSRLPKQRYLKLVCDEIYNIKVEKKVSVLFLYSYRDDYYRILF

Assay [2] concerns ATF4 in thapsigargin stimulated CCRF-CEM cells (PERK). The assay can be described thus: CCRF-CEM thapsigargin (TG) ATF4 ELISA. The following applies: read-out: CCRF-CEM Thapsigargin ATF4 ELISA; 1 μM thapsigargin. As for the experimental part:
CCRF-CEM leukemia cells (catalog #CCL-116) were obtained from the American Type Culture Collection (ATTC, Manassas, VA). Briefly, cells were grown in RPMI-1640 medium supplemented with 10% heat-inactivated fetal bovine serum (Invitrogen, Carlsbad, CA) and 1% Penicillin/Streptomycin/L-Glutamine at 37° C., 5% CO2, and 95% humidity. Cells were expanded until reaching one million cells per mL at which time they were subcultured or harvested for assay use. One million five hundred thousand cells per well in 1 mL complete growth medium were dispensed into 12-well plates and incubated overnight. A serial dilution of test compound was added and cells were incubated at 37° C., 5% CO2, and 95% for three hours, then 1 μM thapsigargin was added and cells were incubated for an additional hour at 37° C., 5% CO2, and 95%. Cells were lysed then ATF4 levels were measured using an ELISA assay (Proteintech, Rosemont, IL). Absorbance was measured at 450 nm and 544 nM using a Synergy2 or equivalent reader (Biotek, Winooski VT). Data was analyzed using PRISM software (Graphpad, San Diego, CA) to calculate IC50 values.

The target of assay [3] is PERK enzyme (Homo sapiens (Human), UniProt Q9NZJ5). Briefly: Biochemical assay for PERK (coupled pyruvate kinase/lactate dehydrogenase). Conditions: read-out: PERK IC50; 1 mM ATP. The protocol: Activity of PERK kinase was determined spectroscopically using a coupled pyruvate kinase/lactate dehydrogenase assay that continuously monitors the ATP hydrolysis-dependent oxidation of NADH (e.g., Schindler et al. Science (2000) 289: 1938-1942). Assays were conducted in 384-well plates ([…] final volume) using 10 nM PERK (from Beryllium), 0.25 mg/mL Myelin Basic Protein substrate, 1.5 units pyruvate kinase, 2.1 units lactate dehydrogenase, 1 mM phosphoenol pyruvate, 0.28 mM NADH and 1 mM ATP in assay buffer (100 mM Tris, pH 7.5, 15 mM MgCl2, 0.5 mM DTT, 0.004% (w/v) BSA, and 0.004% Triton X-100). Inhibition of PERK was measured by adding serial diluted test compound (final assay concentration of 1% DMSO). A decrease in absorption at 340 nm was monitored continuously for 6 hours at 30° C. on a multi-mode microplate reader (BioTek). The reaction rate was calculated using the 2-3 h time frame. The reaction rate at each concentration of compound was converted to percent inhibition using controls (i.e., reaction with no test compound and reaction with a known inhibitor) and IC50 values were calculated using software routines in Prism (GraphPad software).

Assay [4] has as its target GCN2 kinase (Homo sapiens (Human), UniProt Q9P2K8). The assay can be described thus: Biochemical assay for GCN2 (TR-FRET kinase activity). Conditions: read-out: GCN2 IC50; 1 mM ATP. As for the experimental part:
Activity of GCN2 kinase was determined using a TR-FRET kinase activity assay (e.g. Riddle et al. Analytical Biochemistry (2006) 356(1) 108-116). Assays were conducted in 384-well plates (13 μL assay volume) using 2 nM GCN2 (Carna Biosciences), 130 nM GFP-EIf2α (Invitrogen), 0.2 mg/mL E. coli tRNA (sigma) and 1 mM ATP in kinase buffer (Invitrogen). Inhibition of GCN2 was measured by adding serial diluted test compound (final assay concentration of 0.5% DMSO) followed by a 3-hour incubation. Tb-peIF2α (pSer52) antibody (Invitrogen) (2 nM final assay concentration) in kinase buffer containing EDTA (final assay concentration of 20 mM) was added. After a 60 min incubation at room temperature, TR-FRET was monitored using an excitation wavelength of 340 nm and emission wavelengths of 490 nm and 520 nm. The emission ratio (520/490) at each compound concentration of was converted to percent inhibition using controls (i.e., reaction with no test compound and reaction with a known inhibitor) and IC50 values were calculated by fitting a four-parameter sigmoidal curve to the data using Prism (GraphPad software).

For `Cc1c(CO)cc(F)cc1S(=O)(=O)Nc1cccc(-c2cn(C)c3ncnc(N)c23)c1F`, the IC50 in assay [1] was 500 to 1000 nM; in assay [2], 100 to 500 nM; in assay [3] it was below 100 nM; in assay [4], 100 to 500 nM.

The values above are taken from patent US20230382915A1, “GCN2 AND PERK KINASE INHIBITORS AND METHODS OF USE THEREOF” (Deciphera Pharmaceuticals, LLC, priority 2021, published 2023).
